This passage reports percent of input co-purified and percent of input co-precipitated (% of the input) results from publication PMC3836723.

For one assay, the target named is TAP-tagged eRF3 (yeast) (UniProt P05453). Kind of assay: pull-down; TAP-tagged chromosomal alleles; cells treated with 1% HCHO before harvest; WCE (1 mg protein) in buffer B (50 mM Tris-HCl pH 7.6, 150 mM NaCl, 0.05% Tween 20) with or without 0.1 mg/ml RNase A; IgG Sepharose 6 Fast Flow beads, 2 h at 4°C; eluted by boiling in SDS buffer or by TEV …; untagged wt strain as control; Western analysis.

The target in the next assay is Myc-tagged RLI1 (yeast) (UniProt Q03195). Kind of assay: co-IP; WCE of yeast YDH353 (chromosomal Myc-tagged RLI1), 500 µg total protein, 1 µl mouse anti-Myc-Tag IgG, with or without antibody; lysis in buffer A (30 mM HEPES pH 8.8, 20 mM KAc, 3 mM magnesium acetate, 1 mM DTT, 1% Nonidet P-40); Western analysis.

In the assay with TAP-tagged eRF3 (yeast), “eIF3g/TIF35 (from UniProt Q04067 1-274) (natural protein)” showed a percent of input co-purified of 18%. The substance further showed a percent of input co-precipitated (% of the input) with Myc-tagged RLI1 (yeast) of 43.
